This passage reports Activity results from ChEMBL document CHEMBL1926662, “Trace amine-associated receptor 1 is a stereoselective binding site for compounds in the amphetamine class” (Bioorg Med Chem, 2011).

Structures are written as SMILES.

This assay addresses T1, Trace amine-associated receptor 1 (Homo sapiens) (UniProt Q96RJ0).
T1 sequence (whole entry): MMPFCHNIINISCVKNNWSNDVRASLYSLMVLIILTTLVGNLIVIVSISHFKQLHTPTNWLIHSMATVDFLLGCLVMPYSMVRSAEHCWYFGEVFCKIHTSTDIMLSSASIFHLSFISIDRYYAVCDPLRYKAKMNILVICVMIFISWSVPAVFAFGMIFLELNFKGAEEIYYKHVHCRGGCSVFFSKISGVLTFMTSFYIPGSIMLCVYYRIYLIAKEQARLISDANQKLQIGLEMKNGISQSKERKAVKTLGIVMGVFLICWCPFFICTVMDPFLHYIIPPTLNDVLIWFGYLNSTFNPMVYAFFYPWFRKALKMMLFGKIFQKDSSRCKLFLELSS
Put plainly: Activation of human TAAR1 expressed in CHOK1 cells co-expressing Gq protein, Galpha16 using calcium4 dye by microplate reader. Format: functional, cell-based. Particulars: CHO-K1.

As to `C[C@H](N)Cc1cccc(C(F)(F)F)c1`, the Activity is 43%.
